We go through one substance from patent publication US20230338545A1, “COMPLEXES OF MAGNESIUM MALTOL (3-HYDROXY-2-METHYL-4H-PYRAN-4-ONE) FOR ORAL SUPPLEMENTATION” (SYRACUSE UNIVERSITY, priority 2020, published 2023).

This data set can be described thus: Solubility in water. The following applies: for solubility relative to that of the free ligand: complex vs. its ligand (maltol or ethylmaltol).

Consider magnesium maltol [Complex 1], for which the solubility reads like this: (Example 2 product) 3.33 mg/100 mL H2O; (at RT, water) 33.3 mg/mL; (triplicate independent runs) 3.33±0.19 g per 100 mL of H2O. Besides, the “solubility relative to that of the free ligand” value (water, listed as 1) is “approximately 2.8 ×” and the “solubility relative to that of the free ligand” value (water, listed as magnesium maltol) is reported as “three times more soluble”.
